PubChem BioAssay AID488922 (Johns Hopkins Ion Channel Center, 2010)
This is a selection; strong and weak results do not stand in their true shares. Some salts and complexes are drawn in separate pieces, as the source files them; their charges need not balance. Calls of active or inactive are those of the source.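 How the source made its calls: active means ratio B-score over 3 SD below the library mean, with starting fluorescence within 5 SD of its mean; inactive means the rest, inconclusive results apart.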

Protein sequences, listed by entry. Tags and fused reporters are not part of them.
UniProt Q9NPC2, whole entry: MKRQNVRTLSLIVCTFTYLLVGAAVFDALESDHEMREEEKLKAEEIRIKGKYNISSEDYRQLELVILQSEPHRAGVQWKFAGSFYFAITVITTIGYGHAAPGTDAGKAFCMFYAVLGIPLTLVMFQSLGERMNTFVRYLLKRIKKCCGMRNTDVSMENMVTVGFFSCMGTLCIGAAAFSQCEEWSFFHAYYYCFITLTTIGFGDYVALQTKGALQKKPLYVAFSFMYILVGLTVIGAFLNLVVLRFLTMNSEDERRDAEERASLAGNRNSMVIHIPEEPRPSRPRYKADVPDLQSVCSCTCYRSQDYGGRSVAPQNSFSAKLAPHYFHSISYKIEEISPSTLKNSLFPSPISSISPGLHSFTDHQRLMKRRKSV

molecular target: Potassium channel subfamily K member 9 (Homo sapiens) (UniProt Q9NPC2); assay: blockers of human TASK-3 (KCNK9) channel – HEK293 cells, thallium flux, primary screen (AID 488922); settings: HEK293 KCNK9, FluxOR thallium flux fluorescence; at 10 µM

Row | SMILES | outcome
1 | O=[N+]([O-])c1cc([N+](=O)[O-])c(Nc2nnnn2CCO)c([N+](=O)[O-])c1 | inactive
2 | CN(C)C1(CNC(=O)c2ccc(S(C)(=O)=O)cc2)CCCCC1 | inactive
3 | O=C(/C=C/c1ccccc1)OC1CN2CCC1CC2 (stereo unspecified) | inactive
4 | Cc1ccc(C(=O)OC2CN3CCC2CC3)cc1 (stereo unspecified) | inactive
5 | CC1CCC(C(C)C)C(OP(=O)(Nc2ccccn2)c2ccccc2)C1 (stereo unspecified) | inactive
6 | Cc1nn(-c2ccccc2)c2c1P(=O)(N1CCOCC1)N(C)C(c1ccccc1)=N2 (stereo unspecified) | inactive
7 | COc1cc(C2NCCC3(OCCO3)C2(C)C)cc(OC)c1OC.O=[N+]([O-])c1cc([N+](=O)[O-])c(O)c([N+](=O)[O-])c1 (stereo unspecified) | inactive
8 | CCOP1(=S)c2c(C)nn(CCC#N)c2N=C(c2ccc(F)cc2)N1C (stereo unspecified) | inactive
9 | CN(C(=O)Cc1ccccc1)[C@@H]1CC[C@]2(CCCO2)C[C@H]1N1CCCC1 | inactive
10 | N#CCCN(C(=O)COC(=O)C(O)(c1ccccc1)c1ccccc1)c1ccc(F)cc1 | inactive
11 | CN(C(=O)Cc1ccc(Cl)c(Cl)c1)[C@H]1CC[C@@]2(CCCO2)C[C@@H]1N1CCCC1 | inactive
12 | CC1=NCCc2c1[nH]c1ccccc21.O=[N+]([O-])c1cc([N+](=O)[O-])c(O)c([N+](=O)[O-])c1 | inactive
13 | CN(C)C(=O)c1cc([N+](=O)[O-])cc2c1-c1c(cc([N+](=O)[O-])cc1[N+](=O)[O-])C2=O | inactive
14 | O=[N+]([O-])c1ccc2c(c1)nnn2O | inactive
15 | NC(=O)Nc1ccc([As](=O)(O)O)cc1 | inactive
16 | O=C(O)COc1ccc([As](=O)(O)O)cc1[N+](=O)[O-] | inactive
17 | Nc1ccccc1[As](=O)(O)c1ccccc1 | inactive
18 | O=P(Nc1nccs1)(Oc1ccccc1)Oc1ccccc1 | inactive
19 | O=C(O)c1cccc(Nc2c([N+](=O)[O-])cc([N+](=O)[O-])cc2[N+](=O)[O-])c1 | inactive
20 | CCOP1(=S)c2c(C)nn(CCC#N)c2N=C(c2ccccc2F)N1C (stereo unspecified) | inactive
21 | CS(=O)(=O)c1cc([N+](=O)[O-])c2no[n+]([O-])c2c1 | inactive
22 | CCOP(=O)(Nc1cccc2ccccc12)OCC | inactive
23 | Nc1cccc2c([As](=O)(O)O)cccc12 | inactive

Row | SMILES | outcome
24 | Cc1ccc(NCCc2c([N+](=O)[O-])cc([N+](=O)[O-])cc2[N+](=O)[O-])cc1 | inactive
25 | CP(=O)(Nc1cccc(Br)c1)Oc1ccccc1 (stereo unspecified) | inactive
26 | Cc1cc(C)cc(OP(C)(=O)Nc2ccccn2)c1 (stereo unspecified) | inactive
27 | CCCOP(=S)(Nc1nc(N)cc(=O)[nH]1)OCCC | inactive
28 | Cc1ccc(C)c(NP(C)(=O)Oc2ccccc2)c1 (stereo unspecified) | inactive
29 | Cc1cc(C)cc(OP(C)(=O)Nc2ccc(C)cc2C)c1 (stereo unspecified) | inactive
30 | O=[As](O)(c1cccc(O)c1)c1cccc(O)c1 | inactive
31 | Cc1cccc(OCC(=O)OC2CN3CCC2CC3)c1 (stereo unspecified) | inactive
32 | CCOC(=O)c1ccc(NP(C)(=O)Oc2cc(C)cc(C)c2)cc1 (stereo unspecified) | inactive
33 | O=C(OC1CN2CCC1CC2)c1ccc(Cl)cc1 (stereo unspecified) | inactive
34 | CS(=O)(=O)c1ccc(Cl)c(NC(=O)COC(=O)C(O)(c2ccccc2)c2ccccc2)c1 | inactive
35 | COc1ccccc1OP(C)(=O)Nc1cccc(Br)c1 (stereo unspecified) | inactive
36 | COc1cc(C(=O)NCC2(N3CCOCC3)CCCCC2)cc(Cl)c1OC(C)C | inactive
37 | O=[As](O)(O)c1cccnc1 | inactive
38 | CC(=O)Nc1ccc(Oc2c([N+](=O)[O-])cc([N+](=O)[O-])cc2[N+](=O)[O-])cc1 | inactive
39 | COc1ccc2c(c1O)-c1c(O)c(OC)cc3c1[C@H](C2)[N+](C)(C)CC3.O=[N+]([O-])c1cc([N+](=O)[O-])c([O-])c([N+](=O)[O-])c1[O-] | inactive
40 | CC(=O)Nc1ccc([As](=O)(O)O)c(O)c1 | inactive
41 | C[C@@H]1C=CCP(=O)(Oc2ccccc2)O1 (stereo partly specified) | inactive
42 | C[C@H]1OP(=O)(Oc2ccccc2)C[C@@H]2O[C@@H]21 (stereo partly specified) | inactive
43 | O=C(OCCN1CCN(CCOCc2ccccc2)CC1)C(O)(c1ccccc1)c1ccccc1 | inactive
44 | O=C(OC1CN2CCC1CC2)c1ccc([N+](=O)[O-])cc1 (stereo unspecified) | inactive
45 | CC(=O)c1ccc(N2CC2c2ccncc2)cc1 (stereo unspecified) | inactive
46 | CC(C)c1ccc(OP(C)(=O)Nc2ccc(SC(F)(F)F)cc2)cc1 (stereo unspecified) | inactive

Row | SMILES | outcome
47 | CC(C)(C)C(=O)NC(Sc1ccccc1)C(Cl)(Cl)Cl (stereo unspecified) | inactive
48 | CP(=O)(Nc1ccccc1F)Oc1ccccc1 (stereo unspecified) | inactive
49 | CCOc1ccc(C2=NCC(CBr)S2)cc1 (stereo unspecified) | inactive
50 | O=P1(Nc2nc3ccc(Cl)cc3s2)COc2ccccc2O1 (stereo unspecified) | inactive
51 | CN(C)C(=O)Oc1noc2ccccc12 | inactive
52 | O=[N+]([O-])c1cc([N+](=O)[O-])c(OC2CCCCC2O)c([N+](=O)[O-])c1 (stereo unspecified) | inactive
53 | CCCCCOc1ccc(NP(C)(=O)Oc2ccc(Cl)cc2Cl)cc1 (stereo unspecified) | inactive
54 | Cc1ccccc1OP(=O)(Nc1ccccn1)Oc1ccccc1C | inactive
55 | CP(=O)(Nc1ccccc1)Oc1ccc(F)cc1 (stereo unspecified) | inactive
56 | CCC(=O)N1C2C3N(C(=O)CC)C1C1N(C(=O)CC)C(C(N1C(=O)CC)N3C(=O)CC)N2C(=O)CC | inactive
57 | CCN(CC)CCCOC(=O)C(O)(c1ccccc1)C1CCCCC1 (stereo unspecified) | inactive
58 | O=C(OC1CN2CCC1CC2)c1ccccc1 (stereo unspecified) | inactive
59 | Cc1ccc(OP(=O)(Nc2ccccn2)Oc2ccc(C)cc2)cc1 | inactive
60 | CC(=O)NC(SC(=S)N(CC(C)C)CC(C)C)C(Cl)(Cl)Cl (stereo unspecified) | inactive
61 | COC(=O)c1cc2c(s1)N=C(c1ccccc1)N(C)P2(=O)N1CCOCC1 (stereo unspecified) | inactive
62 | COc1ccc(OP(C)(=O)Nc2ccc(SC(F)(F)F)cc2)cc1 (stereo unspecified) | inactive
63 | CCOC(=O)c1ccc(NP(C)(=O)Oc2ccc(F)cc2)cc1 (stereo unspecified) | inactive
64 | CCOC(=O)NC(Sc1ccccc1)C(Cl)(Cl)Cl (stereo unspecified) | inactive
65 | Cc1ccc(NP(=O)(Oc2cccc(C)c2)Oc2cccc(C)c2)nc1 | inactive
66 | c1ccc(-c2nn[nH]n2)c(-c2nn[nH]n2)c1 | inactive
67 | O=C(NC1CCS(=O)(=O)C1)NP(=S)(Oc1ccccc1)Oc1ccccc1 (stereo unspecified) | inactive
68 | CCNC(=S)/N=C(\N)N[N+](=O)[O-] | inactive
69 | O=C(OC1CN2CCC1CC2)c1cccc(Cl)c1 (stereo unspecified) | inactive

Row | SMILES | outcome
70 | Nc1ccc([As](=O)(O)c2ccc([N+](=O)[O-])cc2)cc1 | inactive
71 | C(Cc1nn[nH]n1)Cc1nn[nH]n1 | inactive
72 | O=[N+]([O-])c1cc([N+](=O)[O-])c(NCC2CCS(=O)(=O)C2)c([N+](=O)[O-])c1 (stereo unspecified) | inactive
73 | Cc1cc(-c2cccc3ccccc23)c(C)cn1.O=[N+]([O-])c1cc([N+](=O)[O-])c(O)c([N+](=O)[O-])c1 | inactive
74 | O=[As](O)(c1ccccc1)c1ccc(O)cc1 | inactive
75 | O=[N+]([O-])c1ncn(CCn2cnc([N+](=O)[O-])n2)n1 | inactive
76 | O=[N+]([O-])c1ccc(OP2(=O)COCCO2)cc1 (stereo unspecified) | inactive
77 | CC(=O)NC(SC(=S)N(C)C)C(Cl)(Cl)Cl (stereo unspecified) | inactive
78 | O=[N+]([O-])c1ccc(O)c(/C=N/Nc2ccc([N+](=O)[O-])cc2[N+](=O)[O-])c1 | inactive
79 | COc1ccc(NP(C)(=O)Oc2ccccc2OC)cc1 (stereo unspecified) | inactive
80 | C[C@H]1OP(=O)(Oc2ccccc2)[C@H](O)[C@H](O)[C@H]1N=[N+]=[N-] (stereo partly specified) | inactive
81 | O=P(Nc1nc2ccccc2s1)(c1ccccc1)c1ccccc1 | inactive
82 | CN(C)CCOC(=O)C(O)(c1ccccc1)C1CCCCC1 (stereo unspecified) | inactive
83 | CN(C)C1(CNC(=O)c2ccc(Cl)c(S(N)(=O)=O)c2)CCCCC1 | inactive
84 | O=P(Nc1ccccn1)(c1ccc(Br)cc1)c1ccc(Br)cc1 | inactive
85 | COc1ccc(OP(C)(=O)Nc2cccc(Br)c2)cc1 (stereo unspecified) | inactive
86 | CP(=O)(Nc1ccc2c(c1)OCCO2)Oc1ccccc1 (stereo unspecified) | inactive
87 | c1nnnn1CCn1cnnn1 | inactive
88 | CCOP(C)(=S)SCC(=O)NC(C)(CC)C(=O)O (stereo unspecified) | inactive
89 | O=P(Nc1nccs1)(c1ccccc1)c1ccccc1 | inactive
90 | CC(C)C(=O)NC(Sc1ccccc1)C(Cl)(Cl)Cl (stereo unspecified) | inactive
91 | CP(=O)(Nc1ccc(SC(F)(F)F)cc1)Oc1ccc(F)cc1 (stereo unspecified) | inactive
92 | CC1CCN(C(=O)Oc2c(Cl)cc(Cl)c3cccnc23)CC1 | inactive

Row | SMILES | outcome
93 | CN(C)C(=O)OCCc1n(C)cc[n+]1C | inactive
94 | CC(C)=N/N=C(\N)N[N+](=O)[O-] | inactive
95 | CN(C)C(=O)c1c([N+](=O)[O-])cc([N+](=O)[O-])cc1[N+](=O)[O-] | inactive
96 | CP(=O)(Nc1ccc(Cl)cc1)Oc1ccc(F)cc1 (stereo unspecified) | inactive
97 | CCN(/C(=N/P(=O)(N1CCOCC1)N1CCOCC1)N1CCOCC1)c1ccc(OC)cc1 | inactive
98 | C[N+]1=C2C=CC=CC=C2SC12C([N+](=O)[O-])=CC([N+](=O)[O-])=C[C-]2[N+](=O)[O-] (stereo unspecified) | inactive
99 | Nc1ccc([As](=O)(O)c2ccc(N)cc2)cc1 | inactive
100 | CC(C)(C)c1ccc(OP(C)(=O)O)cc1 | inactive
101 | COc1ccccc1OP(C)(=O)Nc1ccccc1Br (stereo unspecified) | inactive
102 | O=[N+]([O-])c1cc([N+](=O)[O-])c(CCNc2ccccc2)c([N+](=O)[O-])c1 | inactive
103 | CCc1nc2c(n1)c1c(non1O)c1c2no[n+]1[O-] | inactive
104 | CCc1ccc(OP(C)(=O)Nc2cccnc2)cc1 (stereo unspecified) | inactive
105 | Cc1ccc(NP(=O)(Oc2ccccc2)Oc2ccccc2)nc1 | inactive
106 | CP(=O)(Oc1ccccc1)N1CCOC1=O (stereo unspecified) | inactive
107 | O=C(OCCCN1CCCC1)C(O)(c1ccccc1)C1CCCCC1 (stereo unspecified) | inactive
108 | COc1ccccc1OP(C)(=O)Nc1c(C)n(C)n(-c2ccccc2)c1=O (stereo unspecified) | inactive
109 | CC(=O)N1C2C3N(C(C)=O)C1C1N(C(C)=O)C(C(N1C(C)=O)N3C(C)=O)N2C(C)=O | inactive
110 | O=[N+]([O-])c1cccc2n[nH]nc12 | inactive
111 | COc1ccc(C2=NCC(CBr)S2)cc1 (stereo unspecified) | inactive
